Test results as given in patent US5294603A, “Pharmaceutical compositions containing didemnins” (The Board of Trustees of The University of Illinois, priority 1992, dated 1994).

Tested on: L1210 murine leukemia cells
Details: Table 9

Row | Substance | Cytotoxicity L1210 IC50 [µg/mL]
1 | N-(CH3 ONsu)didemnin A [N-(CH3 ONsu)-didemnin A (111)] | 0.001
2 | N-(D-Prolyl) didemnin A [N-(D-Pro)Didemnin A (101)] | 0.06
